Assay results reported in patent US20180112006A1, “AGENTS, SYSTEMS AND METHODS FOR TREATING CANCER” (THE GENERAL HOSPITAL CORPORATION, priority 2015, published 2018).

Test system: LN229
Assay: ENb-TRAIL induced apoptosis after cetuximab pre-treatment (Western blot, caspase3/7 assay)
Type: cell-based
Details: cetuximab pre-treatment 30 min, then ENb-TRAIL 8 h
Source text: (FIG. 14A) Western blot (upper panel) and caspase3/7 assay (lower panel) showing changes in apoptotic markers.

Cetuximab: EGFR specific monoclonal antibody
ENb-TRAIL-induced apoptosis: significantly reduced
